# Results published in publication PMC11178545, “Alkynyl nicotinamides show antileukemic activity in drug-resistant acute myeloid leukemia” (The Journal of Clinical Investigation, 2024).
# Columns and labels:
# [1] = system: BaF3 cells expressing FLT3ITD; test: BaF3 proliferation, colorimetric WST-1 assay; assay type: cell-based, murine; settings: BaF3/FLT3 ITD, 48 hours, replicates
# [2] = system: BaF3 cells expressing FLT3ITD-D835Y; test: BaF3 proliferation, colorimetric WST-1 assay; settings: BaF3/FLT3 ITD-D835Y, 48 hours, replicates
# [3] = concentration 0.016 (unit not given)
# [4] = concentration 0.08 (unit not given)
structure (smiles),measurement,setting,value
CCc1nc(C(N)=O)c(Nc2ccc(N3CCC(N4CCN(C)CC4)CC3)c(OC)c2)nc1NC1CCOCC1 [Gilteritinib],"proliferation, colorimetric assay",[1]; [3],103.895
same,"proliferation, colorimetric assay",[1]; [4],108.033 and 107.958
same,"proliferation, colorimetric assay",[2]; [3],99.5227
same,"proliferation, colorimetric assay",[2]; [4],99.6691 and 103.987
same,"proliferation, colorimetric assay",[2]; concentration 0.4 (unit not given),99.0876 and 95.701 and 107.804

# Where “and” joins values, the source holds several entries; their conditions need not be identical. Equal values may be shown once.
